Earlier results in patent US8506947B2 (priority 1999, dated 2013).

System: Breast cancer cells retrovirally transfected with VZV-TK
Conditions: cited from earlier work

Compound: Nc1nc(O)c2ncn(COC(CO)CO)c2n1 [GCV, Gancyclovir]
- sensitivity of transduced cell lines: minimally increased sensitivity
